Broadly, the Ki is a dissociation constant, usually derived from enzyme kinetics or from competition with a known ligand.

In this test the target is T1, human thrombin (Homo sapiens, UniProt P00734).
T1 construct: Thrombin is kept ready in the plasma in the form of prothrombin and is released from this by factor Xa; purchased Sigma
In words: Thrombin inhibition, kinetic measurement with substrate S-2238. It counts as biochemical. Conditions: substrate H-(D)-Phe-Pro-Arg-pNA (S-2238), pH=7.5, 25° C., read-out: inhibition constant Ki (thrombin). As for the experimental part:
The kinetic measurements were carried out in 0.1M phosphate buffer which contained 0.2M sodium chloride and 0.5% polyethylene glycol 6000 at a pH=7.5 and 25° C. using the substrate H-(D)-Phe-Pro-Arg-pNA (S-2238 Kabi) and human thrombin (Sigma, specific activity=2150 NIH units/mg) in polystyrene semimicro-cuvettes in a total volume of 1 ml.
For this the reaction was started first by adding 0.03 NIH units thrombin to a 100 μM solution of the substrate and the active substance. In a second experiment substrate was added to a solution of thrombin and the active substance which had been incubated for 5 min. The increase of the concentration of p-nitro-anilide with time was monitored spectrophotometrically for 12 min at 405 nm (UV-VIS spectrophotometer Lambda-2 from the Perkin-Elmer Company). […] The inhibition constant Ki was determined as follows. […] The increase in absorbance at 405 nm caused by the formation of p-nitroanilide was monitored for a time period of 12 min. Measurement points (time versus absorbance) were transferred to a PC at intervals of 20 sec. The rates Vo (changes in absorbance per see; measurements without inhibitor) and Vi (measurements with inhibitor) were determined from the data by linear regression. […] From one measurement series (constant inhibitor concentration, variable substrate concentrations) Km' and Vmax were determined by a non-linear fit to the equation [formula] […]

Regarding D-Pla-D-Phe-L-Choi-Adc [Example 1], the Ki amounted to 150 nM.

(Values after patent US5856309A, “Amidinopyrroline derivatives, processes for their production and pharmaceutical agents containing these compounds” (Boehringer Mannheim GmbH, priority 1997, dated 1999).)
